Columns and labels:
[1] = Liver microsomal stability; details: 1 µM compound, 0.5 mg/mL microsomes, 37 °C
[2] = test system: HT22 cells treated with Aβ; test: Cellular ROS assay (DCFDA): inhibition of Aβ-induced ROS generation; details: 5 μM compound
CYP1A2 = CYP1A2 (Homo sapiens, UniProt P05177); test: CYP inhibition assay (Vivid CYP450 screening kit); details: 10 μM compound
CYP3A4 = CYP3A4 (Homo sapiens, UniProt P08684); test: CYP inhibition assay (Vivid CYP450 screening kit); details: 10 μM compound
CYP2C9 = CYP2C9 (Homo sapiens, UniProt P11712); test: CYP inhibition assay (Vivid CYP450 screening kit); details: 10 μM compound
CYP2D6 = CYP2D6 (Homo sapiens, UniProt P10635); test: CYP inhibition assay (Vivid CYP450 screening kit); details: 10 μM compound
[3] = Pharmacokinetic study in SD male rats; details: 10 mg/kg, n = 5, Table S3
recombinant human TSPO = recombinant human TSPO (Homo sapiens, UniProt P30536); test: Surface plasmon resonance (SPR) binding affinity; details: mean ± SD of three measurements
hERG channel = hERG channel (Homo sapiens, UniProt Q12809); test: hERG inhibition assay (automated patch-clamp, CHO-K1 Tet-On hERG cells); details: read-out: hERG (IC50), ± SD
HT22 cells = test: MTT assay: HT22 cell viability with compound alone; type: cell-based, mouse; details: HT22 cell viability after 24 h of treatment with 5 μM compound, no Aβ
[4] = test system: acute AD model mice (Aβ1-42 ICV injected ICR mice); test: Y-maze spontaneous alternation test in acute AD model mice; details: 30 mg/kg daily, 6 days

Protein sequences, listed by entry. Tags and fused reporters are not part of them. Residues count along the entry.
UniProt P05177, 2-516 limits assumed: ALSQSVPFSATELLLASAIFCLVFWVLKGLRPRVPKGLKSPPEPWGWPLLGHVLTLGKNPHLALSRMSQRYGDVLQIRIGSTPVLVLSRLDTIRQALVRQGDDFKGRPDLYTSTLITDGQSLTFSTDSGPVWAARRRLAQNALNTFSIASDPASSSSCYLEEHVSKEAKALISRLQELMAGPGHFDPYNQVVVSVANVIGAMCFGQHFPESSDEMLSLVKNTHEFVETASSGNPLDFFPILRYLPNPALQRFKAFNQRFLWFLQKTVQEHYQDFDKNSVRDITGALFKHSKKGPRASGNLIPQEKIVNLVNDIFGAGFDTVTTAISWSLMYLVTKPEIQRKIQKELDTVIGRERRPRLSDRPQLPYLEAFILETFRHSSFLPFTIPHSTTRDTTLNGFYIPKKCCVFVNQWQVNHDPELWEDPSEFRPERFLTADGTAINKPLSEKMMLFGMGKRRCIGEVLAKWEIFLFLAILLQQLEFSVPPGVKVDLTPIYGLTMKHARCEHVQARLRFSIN
UniProt P08684, 2-503 limits assumed: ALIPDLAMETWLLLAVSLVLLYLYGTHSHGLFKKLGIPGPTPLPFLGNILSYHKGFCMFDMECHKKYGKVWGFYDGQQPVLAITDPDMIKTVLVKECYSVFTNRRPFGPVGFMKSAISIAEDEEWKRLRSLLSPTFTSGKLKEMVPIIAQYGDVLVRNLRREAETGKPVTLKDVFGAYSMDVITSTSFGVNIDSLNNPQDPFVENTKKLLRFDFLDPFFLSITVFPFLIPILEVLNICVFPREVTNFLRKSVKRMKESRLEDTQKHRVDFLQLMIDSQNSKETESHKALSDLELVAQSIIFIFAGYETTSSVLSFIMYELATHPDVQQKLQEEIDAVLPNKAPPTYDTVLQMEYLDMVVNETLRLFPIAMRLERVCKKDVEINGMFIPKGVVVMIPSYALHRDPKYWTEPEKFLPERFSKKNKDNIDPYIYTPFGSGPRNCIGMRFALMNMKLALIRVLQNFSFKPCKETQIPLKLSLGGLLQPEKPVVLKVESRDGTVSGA
UniProt P11712, whole entry: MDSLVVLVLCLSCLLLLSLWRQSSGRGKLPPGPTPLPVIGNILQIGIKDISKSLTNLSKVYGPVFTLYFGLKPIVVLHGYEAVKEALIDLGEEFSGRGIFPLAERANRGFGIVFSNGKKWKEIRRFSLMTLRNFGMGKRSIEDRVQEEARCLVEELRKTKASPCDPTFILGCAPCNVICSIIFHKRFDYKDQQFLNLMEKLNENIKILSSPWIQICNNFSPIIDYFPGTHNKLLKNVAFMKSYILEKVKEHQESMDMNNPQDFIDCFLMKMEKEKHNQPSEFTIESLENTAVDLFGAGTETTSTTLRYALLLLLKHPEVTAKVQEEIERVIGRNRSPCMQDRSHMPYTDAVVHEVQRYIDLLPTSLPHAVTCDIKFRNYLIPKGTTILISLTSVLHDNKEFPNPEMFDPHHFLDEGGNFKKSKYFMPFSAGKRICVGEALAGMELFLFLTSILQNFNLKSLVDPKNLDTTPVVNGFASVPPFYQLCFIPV
UniProt P10635, whole entry: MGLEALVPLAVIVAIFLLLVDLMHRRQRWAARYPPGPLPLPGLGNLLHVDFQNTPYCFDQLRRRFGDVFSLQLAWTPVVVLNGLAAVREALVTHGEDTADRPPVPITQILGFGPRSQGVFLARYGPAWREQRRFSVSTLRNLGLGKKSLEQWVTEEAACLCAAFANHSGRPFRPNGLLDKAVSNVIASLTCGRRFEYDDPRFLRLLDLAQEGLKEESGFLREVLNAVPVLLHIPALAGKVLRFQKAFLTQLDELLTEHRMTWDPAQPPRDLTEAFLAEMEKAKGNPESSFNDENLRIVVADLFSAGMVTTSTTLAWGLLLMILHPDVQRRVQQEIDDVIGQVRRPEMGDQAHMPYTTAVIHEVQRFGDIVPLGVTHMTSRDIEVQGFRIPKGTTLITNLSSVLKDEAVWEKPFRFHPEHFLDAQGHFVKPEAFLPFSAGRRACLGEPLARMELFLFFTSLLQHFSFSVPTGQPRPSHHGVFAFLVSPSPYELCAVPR
UniProt P30536, whole entry: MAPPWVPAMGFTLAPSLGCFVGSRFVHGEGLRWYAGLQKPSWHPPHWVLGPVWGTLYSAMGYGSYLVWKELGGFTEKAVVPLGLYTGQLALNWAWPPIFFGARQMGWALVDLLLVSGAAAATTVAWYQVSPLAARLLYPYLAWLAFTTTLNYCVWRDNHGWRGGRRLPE
UniProt Q12809, whole entry: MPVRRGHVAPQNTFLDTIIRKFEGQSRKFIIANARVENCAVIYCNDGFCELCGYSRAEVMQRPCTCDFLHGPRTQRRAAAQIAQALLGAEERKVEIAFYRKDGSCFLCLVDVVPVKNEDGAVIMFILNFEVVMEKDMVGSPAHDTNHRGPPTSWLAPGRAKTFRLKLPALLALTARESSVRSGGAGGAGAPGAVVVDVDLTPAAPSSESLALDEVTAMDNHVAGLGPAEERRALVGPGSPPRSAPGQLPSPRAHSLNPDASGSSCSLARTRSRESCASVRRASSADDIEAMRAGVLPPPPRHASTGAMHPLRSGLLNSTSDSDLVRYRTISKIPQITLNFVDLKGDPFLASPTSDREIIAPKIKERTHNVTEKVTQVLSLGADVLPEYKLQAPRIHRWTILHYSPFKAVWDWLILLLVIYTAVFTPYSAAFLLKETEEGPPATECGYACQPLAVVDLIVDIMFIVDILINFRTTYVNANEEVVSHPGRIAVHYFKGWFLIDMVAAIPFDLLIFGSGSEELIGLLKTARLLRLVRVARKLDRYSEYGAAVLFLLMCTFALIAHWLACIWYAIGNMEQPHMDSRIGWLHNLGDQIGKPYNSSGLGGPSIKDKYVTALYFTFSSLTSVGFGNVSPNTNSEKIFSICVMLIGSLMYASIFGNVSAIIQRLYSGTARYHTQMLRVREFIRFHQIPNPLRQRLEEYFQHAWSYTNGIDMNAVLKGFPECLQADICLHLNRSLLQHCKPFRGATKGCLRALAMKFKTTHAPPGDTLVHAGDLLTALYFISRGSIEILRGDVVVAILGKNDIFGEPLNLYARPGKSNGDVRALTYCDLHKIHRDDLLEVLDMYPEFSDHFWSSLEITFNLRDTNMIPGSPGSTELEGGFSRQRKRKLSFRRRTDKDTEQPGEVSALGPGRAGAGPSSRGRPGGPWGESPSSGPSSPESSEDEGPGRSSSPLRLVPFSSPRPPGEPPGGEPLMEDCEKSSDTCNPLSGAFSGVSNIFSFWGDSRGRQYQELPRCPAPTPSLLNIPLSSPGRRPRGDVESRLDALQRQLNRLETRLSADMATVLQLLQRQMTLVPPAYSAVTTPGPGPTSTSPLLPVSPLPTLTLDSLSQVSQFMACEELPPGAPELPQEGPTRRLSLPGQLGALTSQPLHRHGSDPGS

In the case of `COc1ccc(-n2c(SCC(=O)Nc3ccc(F)cc3F)nc3sc4c(c3c2=O)CCN(C(C)=O)C4)cc1`, the “Human Liver Microsomal Stability (% remaining after 30 min)” value [1] is reported as 62.9%, the “ROS Inhibition (%)” value [2] is reported as 136% and the “CYP450 (% remaining Activity at 10 μM) CYP1A2” value (CYP1A2) is reported as 92.0%. For the same compound, the “CYP450 (% remaining Activity at 10 μM) CYP3A4” value (CYP3A4) was 158.6%, the “CYP450 (% remaining Activity at 10 μM) CYP2C9” value (CYP2C9) was 63.8% and the “CYP450 (% remaining Activity at 10 μM) CYP2D6” value (CYP2D6) was 98.9%. The “AUC0–∞” value ([3]; intravenous) was 330.66 ± 93.61 mg·min/mL, the AUClast ([3]; intravenous) was 273.60 ± 64.45 mg·min/mL and the CL ([3]; intravenous) was 32.525±10.08 ml/mim/kg. For the same compound, the Terminal half-life ([3]; intravenous) was 2.8972 ± 0.5397 h, the Vss ([3]; intravenous) was 7.73686 L/kg and the “F (bioavailability)” value ([3]; oral vs intravenous) was 8.0%. The “AUC0–∞” value ([3]; oral) was 26.59 ± 22.32 mg·min/mL, the AUClast ([3]; oral) was 11.67 ± 5.99 mg·min/mL and the Terminal half-life ([3]; oral) was 7.4683 ± 0.46 h. It also gave a Tmax ([3]; oral) of 0.8 h, a Kd (recombinant human TSPO) of 1.69 µM and an IC50 (hERG channel) of 4.23 µM. The “MTT Viability (%)” value (HT22 cells) was 120% and the “Y-maze activity in acute AD model (in words)” value [4] was “did not show any comparable activity”.

From publication PMC7996082, “The translocator protein ligands as mitochondrial functional modulators for the potential anti-Alzheimer agents” (Journal of Enzyme Inhibition and Medicinal Chemistry, 2021)
